Measured values reported in patent US9822157B2 (priority 2013, dated 2017).

Target: T1, human ferroportin (Homo sapiens, UniProt Q9NP59)
T1 sequence (Q9NP59 1-571): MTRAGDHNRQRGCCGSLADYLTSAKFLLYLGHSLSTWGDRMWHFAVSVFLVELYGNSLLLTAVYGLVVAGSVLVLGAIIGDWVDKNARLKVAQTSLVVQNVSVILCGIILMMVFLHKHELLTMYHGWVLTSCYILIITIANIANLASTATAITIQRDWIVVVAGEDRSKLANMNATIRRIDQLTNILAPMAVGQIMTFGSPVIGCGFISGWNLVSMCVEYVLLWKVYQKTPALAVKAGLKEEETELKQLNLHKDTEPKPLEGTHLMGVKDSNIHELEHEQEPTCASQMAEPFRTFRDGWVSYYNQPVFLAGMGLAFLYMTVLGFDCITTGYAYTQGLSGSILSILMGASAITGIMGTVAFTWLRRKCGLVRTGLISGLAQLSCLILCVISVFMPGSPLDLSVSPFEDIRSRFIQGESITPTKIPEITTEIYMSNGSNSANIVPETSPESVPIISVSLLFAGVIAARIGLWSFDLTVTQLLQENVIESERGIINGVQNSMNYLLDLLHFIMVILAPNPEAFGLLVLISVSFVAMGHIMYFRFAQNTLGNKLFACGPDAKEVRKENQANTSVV
Format: cell-based
Settings: Hepcidin analog peptides; read-out: Potency EC50
Description: The cDNA encoding the human ferroportin (SLC40A1) was cloned from a cDNA clone from Origene (NM_014585). The DNA encoding the ferroportin was amplified by PCR using primers also encoding terminal restriction sites for subcloning, but without the termination codon. The ferroportin receptor was subcloned into a mammalian GFP expression vector containing a neomycin (G418) resistance marker in such that the reading frame of the ferroportin was fused in frame with the GFP protein. The fidelity of the DNA encoding the protein was confirmed by DNA sequencing. HEK293 cells were used for transfection of the ferroportin-GFP receptor expression plasmid. The cells were grown according to standard protocol in growth medium and transfected with the plasmids using Lipofectamine (manufacturer's protocol, Invitrogen). […] The cells were propagated and frozen in aliquots.
Compound was added to desired final concentration for at least 18 hours in the incubator. […] Compound was added to desired final concentration for at least 18 hours but no more than 24 hours in the incubator.
A retro inverse peptide is a peptide with a reversed sequence in all D amino acids. […] The EC50 of these reference compounds for ferroportin degradation was determined according to the activity assay described above.

| Substance | EC50 [nM] |
| --- | --- |
| Isovaleric acid-DTHFPCIIFGPRSKGWECK-NH2 [Compound 172] | 15 |
| Palm-PEG11-DTHFPCIIFGPRSRGWVCK-NH2 [Compound 89] | > 1000 |
| Hy-DTHFPCI-K(IVA)-FGPRSKGWVCK-NH2 [Compound 204] | > 300 |
| Ida-THFPCIKFEPRSK-K(isoGlu-Palm)CK-NH2 [Compound 244] | 25 |
| Isovaleric acid-DTHFPCIKF-K(butyric acid)-PRSKGWVC-NH2 [Compound 252] | 37 |
| Isovaleric acid-DTHFPCIKFGPRSKGWTCK-NH2 [Compound 154] | 18 |
| Isovaleric acid-HFPCIKFEPRSKGWVC-K(lauric acid)-NH2 [Compound 262] | 77 |
| Isovaleric acid-DTHFPCLIFGPRSKGWVCK-NH2 [Compound 93] | 19 |
| Hexanoic acid-DTHFPCIKFGPRSKGWVCK-NH2 [Compound 166] | 36 |
| Isovaleric acid-DTHFPCIKFK(isoGlu-Palm)-PRSKGWECK-NH2 [Compound 241] | 6 |
| Isovaleric acid-DTHFPCIKFGPRSKGWVC-K(Palm)-NH2 [Compound 198] | 7 |
| Isovaleric acid-DTHFPC1IIFVC2HRPKGC2YRRVC1R-NH2 [Compound 148] | 2.2 |
| Isovaleric acid-DTHFPCIKFEPHSKGCK-NH2 [Compound 263] | 62 |
| Hy-DTHFPIC1IFVC2HRSKGC2YRAC1-NH2 [Compound 14] | 69 |
| Isovaleric acid-DTKFPCIIFGPRSKGWVCK-NH2 [Compound 147] | 20 |
| Isovaleric acid-DTHFPCIIFGPRSKGWKCK-NH2 [Compound 171] | 48 |
| Isovaleric acid-DTHFPCI-K(Palm)-FGPRSKGWVCK-NH2 [Compound 194] | 4 |
| [Ida]-TH-[Dpa]-[bhPro]-ICIFGPRSKGWVCM-NH2 [Compound 5] | 17 |
| Octanoic acid-PEG11-DTHFPCIIFGPRSRGWVCK-NH2 [Compound 108] | > 1000 |
| Isovaleric acid-DTHFPCIKFEPRECK-NH2 [Compound 359] | 64 |
| [Ida]-THFPCIKFEPRSKGWVC-K(lauric acid)-NH2 [Compound 255] | 52 |
| Hy-DTHF-[bh-Pro]-CIIFGPRSRGWVCK-NH2 [Compound 79] | > 1000 |
| Isovaleric acid-DTHFPCIKFGPRS-K(Palm)-GWVCK-NH2 [Compound 197] | 1 |
| Isovaleric acid-DTHFPCIKFEPRSKGWVCK-OH [Compound 238] | 47 |
| Isovaleric acid-DTHFPCIKFGPRSKGWVC-K(Betaine)-NH2 [Compound 159] | 17 |
| Isovaleric acid-DTHFPCIIFGPRSKGWVCKK-NH2 [Compound 145] | 9 |
| 5-Methylpentanoic acid-DTHFPCIKFGPRSKGWVCK-NH2 [Compound 167] | 99 |
| Isovaleric acid-DTHFPCIKFEPRCK-NH2 [Compound 361] | 29 |
| Isovaleric acid-DTHFPCIKF-K(Ac)-PRSKGWVC-NH2 [Compound 253] | 29 |
| Isovaleric acid-DTHFSCIIFGPRSKGWVCK-NH2 [Compound 107] | 50 |

Same assay, conditions: read-out: EC50 (nM) (n = 3); in vitro activity as in Example 2; peptide monomers and dimers dimerized through a single disulphide linkage; n = 3

| Substance | EC50 [nM] |
| --- | --- |
| (Isovaleric acid-DTHFPCIKF-NH2)2 [Compound 326] | 3 |

Same assay, conditions: read-out: EC50 (nM) (n > 3); peptide dimers, dimer position explored (DIG linker)

| Substance | EC50 [nM] |
| --- | --- |
| (Isovaleric acid-DTHFPCIKFK-NH2)2 [Compound 345] | 8 |
| (Isovaleric acid-DTHFPCIKF-NH2)2 [Compound 326] | 3 |
| (Isovaleric acid-DTKFPCIRF-NH2)2 DIG through K3 [Compound 340] | 212 |
| DIG-(DTHFPCIKF-NH2)2 DIG through N-terminus [Compound 328] | > 1000 |
| (Isovaleric acid-DTHFPCIRK-NH2)2 [Compound 343] | 11 |

Same assay, conditions: read-out: Log dilutions EC50 (nM) (n > 3) (converted); peptide dimers, various linkers at different positions

| Substance | EC50 [nM] |
| --- | --- |
| (Isovaleric acid-DTHFPCIKFK-NH2)2 [Compound 345] | 8 |
| (Isovaleric acid-DTHFPCIKF-NH2)2 [Compound 326] | 6 |
| (Hy-DTHFPCIKF-NH2)2-[IDA-(β-Ala)] [Compound 348] | 18 |
| [PEG25]-(DTHFPCIKF-NH2)2 [Compound 351] | > 1000 |
